Measurements from patent publication US20060223786A1.
Only a part of the results on these compounds is given; other tests are left out.

Assay: In vitro flux through human cadaver epidermis, Franz cell diffusion method
Conditions: 1% solution in ethanol in direct contact with human cadaver epidermis, 32° C., receiving buffer PBS pH=7.4, FIG. 1

CCC(=O)N(c1ccccc1)C1CCN(CCc2ccccc2)CC1
in vitro flux through human cadaver epidermis: higher than the flux of fentanyl citrate
